Screening results: PubChem, Broad Institute
CAL PDZ FP-1: human CAL PDZ-peptide interaction inhibition; purified CAL PDZ, TMR-peptide fluorescence polarization, 1 h; actives 0.02% (n = 330,000); AID 504414; inhibition, % at 20 µM; Q9HD26;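 active means highest replicate inhibition of at least 40%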;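 further: plate controls were DMSO neutral control wells for no effect and unlabeled competitor peptide control wells for full effect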
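Test system: tagged CAL PDZ domain / Buffer or medium: sodium phosphate/NaCl buffer pH 7.4 with TCEP, IgG, Thesit / Reagent: TMR-labelled reporter peptide T*-PRC34 bound in PDZ groove / Compound dosing: single point, 20 µM / Schedule: 1 h incubation at room temperature before polarization reading / Technique: fluorescence polarization (mP) / Benchmarks: unlabelled peptide, DMSO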
CDK5 p35 inh: blocks human CDK5/p35 kinase activity; Q00535+Q15078; Recombinant CDK5/p35, ADP-Glo luminescence, 60 min; inhibition, % at 10 µM; actives 0.01% (n = 330,000); AID 488839;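 active means highest replicate inhibition of at least 50% and at least 75% of replicates reaching 50%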;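 further: plate controls were DMSO neutral control for no effect and GW8510 at 10 µM for full effect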
Dyrk1A ADPGlo: Dyrk1A (rat) kinase inhibition; Q63470; ADP-Glo luminescence, NFATc1 peptide; inhibition, % at 12.5 µM; actives 0.43% (n = 310,000); AID 504441; in the data active means inhibition above about 50%;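 further: plate controls were vehicle with enzyme for no effect and no enzyme for full effect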
dFosB act-1: activators of mouse delta FosB homodimer; P13346; AID 493131; activation, % at 25 µM; purified delta FosB, TAMRA-CDK5 oligo fluorescence polarization; percent of positive-control signal above neutral wells; actives 0.99% (n = 340,000);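 active means mean activation above about 17%, with every replicate also reaching it, limit read from the data, passing the limit was not always enough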
UUG fidelity: modulators of start codon recognition fidelity in yeast; S. cerevisiae UUG-firefly luciferase reporter, luminescence/redox ratio; activity score, % at 18.7 µM; 0.13% of 350,000 active;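 active = replicate mean at a twofold rise or more, about +100% in these data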;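 also: firefly luciferase made from a UUG start codon reports start codon fidelity; reporter light over untreated wells divided by growth signal over untreated wells; some hits fall short of that in this replicate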
CAL PDZ FP-2: blocks peptide binding to the human CAL PDZ domain | inhibition, % at 24.9 µM | purified CAL PDZ, TMR-peptide fluorescence polarization, 1 h | Q9HD26 | actives 0.92% (n = 300,000);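 active means mean inhibition of at least 30% with at least half of replicates also reaching 30%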;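 further: 0% = DMSO neutral control and 100% = excess unlabeled competitor peptide PRC23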
dFosB act-2: delta FosB (mouse) homodimer activation | purified delta FosB, TAMRA-CDK5 oligo fluorescence polarization; normalised: neutral wells 0, positive control 100 | 2,400 tested, under 10 active | AID 588690 | activation, % at 24.9 µM | shares compounds with dFosB act-1;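 active means highest replicate activation at or above 34% and every replicate reaching that threshold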;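 further: higher polarization means more probe DNA bound by delta FosB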
* marks the source's active call; other numbers are inactive results; · = no result. Hits are enriched below; roughly 1.7% of the tested compounds scored in any of these assays.

SMILES	CAL PDZ FP-1	CDK5 p35 inh	Dyrk1A ADPGlo	dFosB act-1	UUG fidelity	CAL PDZ FP-2	dFosB act-2
COCC#Cc1ccc2c(c1)O[C@@H](CN(C)S(=O)(=O)c1cccc(OC)c1)[C@@H](C)CN([C@H](C)CO)S2(=O)=O	·	·	·	·	11.7	·	·
O=C(NC(=S)Nc1nc(-c2cccc([N+](=O)[O-])c2)cs1)c1ccccc1Cl	-1.0	0.5	6.4	88.2*	·	3.8	4.6
C[C@@H]1CN([C@@H](C)CO)C(=O)c2cccc(NS(C)(=O)=O)c2O[C@@H]1CN(C)C(=O)Nc1ccccc1	·	·	·	·	-17.4	·	·
O=C(NC(NC(=S)Nc1c(Cl)cccc1Cl)C(Cl)(Cl)Cl)OCc1ccccc1 (configuration not stated)	-0.9	-0.8	·	16.3*	·	1.4	5.5
Cc1ccc(C(=O)NC(NC(=O)c2ccc(C)cc2)C(Cl)Cl)cc1	0.5	-0.7	5.1	24.4*	-19.9	-3.6	1.4
C[C@@H]1CN([C@H](C)CO)C(=O)c2cc(-c3ccncc3)cnc2O[C@H]1CN(C)C(=O)NC1CCCC1	·	·	·	·	-6.5	·	·
O=Nc1c2cc(-c3ccccc3)[nH]nc-2c2ccccc12	-9.5	0.5	1.7	5.5	·	5.9	·
Cc1ccc(-c2cc3c(N=O)c4ccccc4c-3n[nH]2)cc1	-5.7	1.5	5.7	32.0*	·	-1.8	1.7
N#Cc1ccc(C23CC4(C2)[C@H](CN(CC2CCCCC2)[C@@H]4c2ccccc2)C3c2ccc(Cl)nc2)cc1 (some centres not stated)	0.8	0.2	2.6	24.8*	3.3	0.9	-0.5
NCCNc1ccc([N+](=O)[O-])c(Sc2nc3ccccc3[nH]2)c1	-1.6	0.8	-4.0	25.4*	·	-1.6	0.1
O=[N+]([O-])c1ccc(N2CCNCC2)cc1Sc1nc2ccccc2[nH]1	-2.4	1.3	-1.1	13.9	·	-1.4	·
NS(=O)(=O)c1ccc(CCNC(=O)c2cc(-c3ccc(Br)cc3)nc3ccccc23)cc1	-1.8	1.5	2.9	79.0*	·	-4.2	0.1
O=C(NCCc1ccc(Cl)cc1)c1cc(-c2ccccn2)nc2ccccc12	-2.0	·	·	0.0	-11.4	-3.2	·
CCCc1ccc(-c2cc(C(=O)NCCc3ccc(S(N)(=O)=O)cc3)c3ccccc3n2)cc1	-2.7	-0.1	·	10.7	·	-2.2	·
NS(=O)(=O)c1ccc(CCNC(=O)c2cc(-c3ccccn3)nc3ccc(Br)cc23)cc1	-0.4	0.3	1.5	32.0*	·	4.1	-5.8

Random excerpt: 4 compounds from above, in no set order.
SMILES	CAL PDZ FP-1	CDK5 p35 inh	Dyrk1A ADPGlo	dFosB act-1	UUG fidelity	CAL PDZ FP-2	dFosB act-2
Cc1ccc(-c2cc3c(N=O)c4ccccc4c-3n[nH]2)cc1	-5.7	1.5	5.7	32.0*	·	-1.8	1.7
O=[N+]([O-])c1ccc(N2CCNCC2)cc1Sc1nc2ccccc2[nH]1	-2.4	1.3	-1.1	13.9	·	-1.4	·
O=C(NCCc1ccc(Cl)cc1)c1cc(-c2ccccn2)nc2ccccc12	-2.0	·	·	0.0	-11.4	-3.2	·
N#Cc1ccc(C23CC4(C2)[C@H](CN(CC2CCCCC2)[C@@H]4c2ccccc2)C3c2ccc(Cl)nc2)cc1 (some centres not stated)	0.8	0.2	2.6	24.8*	3.3	0.9	-0.5

Remaining list, next part.
SMILES	CAL PDZ FP-1	CDK5 p35 inh	Dyrk1A ADPGlo	dFosB act-1	UUG fidelity	CAL PDZ FP-2	dFosB act-2
CCCNC(=O)N(C)C[C@H]1Oc2cc(-c3ccccc3F)ccc2S(=O)(=O)N([C@H](C)CO)C[C@H]1C	·	·	·	·	9.0	·	·
CC(C)C(=O)Nc1ccc2c(c1)C(=O)N(C)[C@H]1CC[C@@H](CC(=O)NCc3ccc(F)cc3)O[C@H]1CO2	·	·	·	·	-4.8	·	·
COc1ccc2cc3c(N)nn(C(=O)c4cccc(F)c4)c3nc2c1	0.3	0.0	-3.3	50.9*	·	8.8	-2.3
COc1cccc(CC(=O)n2nc(N)c3cc4ccc(OC)cc4nc32)c1	-0.1	0.6	3.9	32.2*	-18.9	·	4.5
COc1ccc2cc3c(N)nn(C(=O)c4ccc(F)cc4)c3nc2c1	0.4	1.3	6.8	8.3	·	8.4	·
COCC#Cc1cnc2c(c1)C(=O)N([C@H](C)CO)C[C@@H](C)[C@H](CN(C)C(=O)Cc1ccccc1)O2	·	·	·	·	-10.2	·	·
Cc1ccc(SCc2nc3ccccc3n2CC(=O)Nc2c(C)cccc2C)cc1	-2.0	0.7	0.5	32.2*	-24.4	·	0.4
Cc1ccc(SCc2nc3ccccc3n2CC(=O)Nc2ccccc2)cc1	-1.5	1.2	0.0	-0.3	-18.4	·	·
CC(=O)Nc1ccc(-c2cc(-c3ccc(NC(C)=O)cc3)nc(-c3ccc(NC(C)=O)cc3)n2)cc1	-1.2	-0.3	-13.4	54.1*	-9.4	·	0.3
C[C@@H]1CN([C@@H](C)CO)C(=O)c2cc(NC(=O)Nc3ccccc3)ccc2O[C@@H](C)CCCCO[C@H]1CN(C)Cc1ccc2c(c1)OCO2	·	·	·	·	2.7	·	·
N#C/C(=C\c1c(N2CCN(Cc3ccccc3)CC2)nc2ccccn2c1=O)S(=O)(=O)c1ccccc1	-1.9	·	·	32.3*	·	-5.5	2.7
